Measured values published in patent US5658885A, “Amidino and guanidino substituted boronic acid inhibitors of trypsin-like enzymes” (The DuPont Merck Pharmaceutical Company, priority 1994, dated 1997).

Biological target: human thrombin (Homo sapiens, UniProt P00734)
Experiment: Inhibition of thrombin hydrolysis of chromogenic substrate S2238 (Ki)
Settings: read-out: Thrombin Ki, S2238, pH 7.5

## CC(=O)N[C@H](Cc1ccccc1)C(=O)N1CCC[C@H]1C(=O)NC(B1OC2CC3CC(C3(C)C)C2(C)O1)c1ccc(CC#N)cc1 (stereo partly shown)
  Ki: < 500 nM
